Test system: dulcitol accumulation
Experiment: lowering of dulcitol (galactitol) accumulation in tissues of galactosemic rats (Table I, IN VIVO)
Design: species or system rat (Sprague-Dawley)
Details: diaphragm, 9 mg/kg, 4 days
Description: Such experiments are exemplified hereinbelow after the listing of the following general comments pertaining to these experiments:
(a) Four or more groups of six male rats, […], Sprague-Dawley strain, were used. The first group, the control group, was fed a mixture of laboratory chow (rodent Laboratory Chow, Purina) and […] at 20% (w/w %) concentration. […] The test compound was either admixed to the diet or administered by gavage. In experiments involving compound administration in the diet, the average dose administered was calculated from the actual food intake of the animals in each group. The concentration of galactose in the diet of the treated groups was the same as that for the untreated galactosemic group.
(b) After four days, the animals were killed by decapitation. The eyeballs were removed and punctured with a razor blade; the freed lenses were rolled gently on filter paper and weighed. The sciatic nerves were dissected as completely as possible and weighed. Both tissues when frozen can be kept up to two weeks before being analyzed for galactitol.
Only two minor reagent changes were made: (a) the rinsing mixture was an aqueous 5% (w/v) trichloroacetic acid solution and (b) the stock solution was prepared by dissolving 25 mg of dulcitol in 100 mL of an aqueous trichloroacetic acid solution. […]

`COc1ccc2c(C(=S)N(C)CC(=O)O)cccc2c1C(F)(F)F` [tolrestat, N-[[6-methoxy-5-(trifluoromethyl)-1-naphthalenyl]thioxomethyl]-N-methylglycine, reference compound] was tested, and the “% Lowering dulcitol accumulation IN VIVO, D” value was 87%.
